From paper PMC3102230 (Chemistry & biology, 2011)

Test system: E. coli IF2
Conditions: E. coli 70S ribosomes; 1 μM ThS or 5 μM MiC (Figure 2E)

For `C/C=C(\NC(=O)c1csc(-c2csc(-c3ccc4c(n3)-c3csc(n3)[C@H]([C@@H](C)O)NC(=O)c3csc(n3)[C@H](C(C)C)NC(=O)c3csc(n3)/C(=C/C)NC(=O)[C@H]([C@@H](C)O)NC(=O)c3csc-4n3)n2)n1)C(=O)NC[C@@H](C)O` [MiC, micrococcin], the “effect on rdGTPase activity of IF2” value was “inhibited”.
